Results on one molecule are retold here after PMC9132451 (Science Advances, 2022).

This test deals with T1, GST-tagged ubiquitin (UniProt P0CG47 1-76).
T1 construct: ubiquitin (the cut product of the ubiquitin precursors); also called GST-ubiquitin; source: bought: Boston Biochem, catalog no; U-540
The test is described as follows: pull-down; in vitro binding: 5 μg recombinant purified GST or GST-fusion protein (on beads) with 5 μg His-fusion protein in 300 μl 20 mM HEPES pH 7.4, 100 mM NaCl, 2 mM MgCl2, 0.1% saponin, 1 hour, 4°C; immunoblotting with GST- and His-tag antibodies. Conditions: both partners purified. In general terms: A western blot detects proteins with antibodies after separation by electrophoresis.

B1: His-tagged ANTH domain of HIP1 (domain or fragment, Homo sapiens, UniProt O00291 1-314, looked up)
chain: MDRMASSMKQVPNPLPKVLSRRGVGAGLEAAERESFERTQTVSINKAINTQEVAVKEKHARTCILGTHHEKGAQTFWSVVNRLPLSSNAVLCWKFCHVFHKLLRDGHPNVLKDSLRYRNELSDMSRMWGHLSEGYGQLCSIYLKLLRTKMEYHTKNPRFPGNLQMSDRQLDEAGESDVNNFFQLTVEMFDYLECELNLFQTVFNSLDMSRSVSVTAAGQCRLAPLIQVILDCSHLYDYTVKLLFKLHSCLPADTLQGHRDRFMEQFTKLKDLFYRSSNLQYFKRLIQIPQLPENPPNFLRASALSEHISPVVVI
notes: HIP1 ANTH domain, Homo sapiens, amino acids 1 to 314, in pET-28a(+); also called HIP1-ANTH domain
For the molecule B1, the binding result is “binds”.
